Values of other authors in patent US20170074857A1, “MEDICATION ADHERENCE MONITORING DEVICE” (UNIVERSITY OF FLORIDA RESEARCH FOUNDATION, INC., priority 2014, published 2017).

Conditions: cited from earlier work

Substance: 2-propanol (isopropyl alcohol)
- LD50 Oral Rat: 6045 mg/kg
